# The list is not random: actives were taken first. Their share in the collection is about 13%.
# ALDH1A1 block = ALDH1A1 (human) enzyme inhibition; Purified ALDH1A1, NADH fluorescence, propionaldehyde substrate; Potency, µM (doses to about 75.3 µM), for the others: at the top dose activity, negative = inhibition, hits mostly inhibitors; 220,000 tested, 7.3% active; AID 1030; active means well fitted inhibition curve with a large enough effect, not every such curve was filed as active; inconclusive means small, poorly fitted or top-dose-only effect, or another doubt; inactive means no such curve, though single readings can be large or run the other way;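 further: potency means the concentration at half of the fitted maximal effect; plate controls were no enzyme wells and a reference inhibitor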
# LMNA splice mod = LMNA splicing modulation; Potency, µM (highest dose often 46.1 µM), for the others: top-dose ratio change, negative = inhibition, actives largely listed as inhibitors; 200,000 tested, 0.01% active; HeLa LMNA splicing GFP/RFP minigene ratio, 48 h; active means well fitted inhibition curve with a large enough effect in the signal ratio, with a control signal flat, not every such curve was filed as active; inconclusive means small, poorly fitted or top-dose-only effect, or effect the other way, or a change in a side signal; the % refers to the signal ratio; further: potency means the concentration at half of the fitted maximal effect; on the % scale 0 is the no-effect control and ±100 the full control effect
#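 S3 HeLa cells stably expressing lamin A-EGFP splicing minigene plus DsRed2, 600 cells/well, 48 h compound exposure at 37C. Laser-scanning cytometry; analysed as GFP (500-530 nm)/RFP (575-640 nm) total intensity ratio; 0.5% DMSO vehicle.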
# miR-21 reporter = raises the signal of a miR-21 reporter; HeLa miR-21 FLuc reporter, luciferase, 48 h; Potency, µM (series often up to 38.3 µM), inactives show top-dose reporter change, positive = more light; 340,000 tested, under 10 active; active = well fitted rising curve with a large enough effect; inconclusive = small, poorly fitted or top-dose-only effect; inactive = no such curve, though single readings can be large or run the other way;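 also: % of control where 0% means no effect; miR-21 action dims this reporter so a rising signal means less miR-21 action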
#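 Compounds were titrated across several concentrations (up to approximately 40 uM) and incubated 48 hours with HeLa miR-21-FLuc reporter cells (miR-21 target sequence downstream of FLuc, endogenous miR-21). Readout was firefly luciferase luminescence after lytic detection reagent.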
# G9a inh = inhibitors of human histone lysine methyltransferase G9a | Potency, µM (highest dose often 102 µM), without a hit: at the highest dose activity, negative = inhibition, most hits filed as inhibitors | G9a H3K9 monomethylation, AlphaScreen, 2 h | Q96KQ7 | 350,000 tested, 8.8% active | AID 504332; further: potency means the concentration at half of the fitted maximal effect; on the % scale 0 is the no-effect control and ±100 the full control effect; nearly all actives have a fitted effect of over 75% in size
#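 AlphaScreen detection with an anti-monomethyl H3K9 antibody quantified product after a 2 h room-temperature reaction containing 500 nM biotinylated H3K9 peptide, 20 µM SAM and 20 nM enzyme, which had been preincubated 15 min with compound.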
# JMJD2E inh = blocks human JMJD2E demethylase activity; B2RXH2; JMJD2E catalytic domain, FDH-coupled NADH fluorescence (FDH is formaldehyde dehydrogenase); Potency, µM (series often up to 57.1 µM), for inactives: at the highest dose activity change, negative = inhibition, actives largely listed as inhibitors; 230,000 tested, 1.6% active; active means well fitted inhibition curve with a large enough effect, not every such curve was filed as active; inconclusive means small, poorly fitted or top-dose-only effect, or another doubt; inactive means no such curve, though single readings can be large or run the other way;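 further: potency means the concentration at half of the fitted maximal effect; 0% = wells with enzyme and -100% = buffer wells without enzyme; nearly all actives have a fitted effect of over 50% in size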
# Sfp PPTase inh = inhibitors of Bacillus subtilis Sfp phosphopantetheinyl transferase. Q9F4F7. Biochemical Sfp PPTase activity, qHTS. Potency, µM, inactives show max response, negative = inhibition, most hits filed as inhibitors. 3.5% of 310,000 active. AID 1490; active = well fitted inhibition curve with a large enough effect; inconclusive = small, poorly fitted or top-dose-only effect, or another doubt; inactive = no such curve, though single readings can be large or run the other way;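 also: the enzyme is Sfp with the accession as filed and its product quenches rhodamine fluorescence; potency is read from the fitted curve at half-maximal effect; 0% = enzyme reaction without inhibitor and -100% = no enzyme wells; top concentration of the series not given in the record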
#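 Fluorescence-quenching assay: 15 nM Sfp-PPTase preincubated 15 min at room temperature with compound, then 5 uM rhodamine-CoA and 12.5 uM BHQ-2-labelled YbbR peptide added. Fluorescence (ex 525/em 598 nm) read at start and after 30 min; difference gives rate.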
# * hit, by the source's call; ? = inconclusive; . = not tested or not shown; [ ] = dose if it differs, or a comment. Unless noted, the call rests on the fitted dose curve; in most records, active means well fitted curve in the direction sought with a large enough effect; inconclusive means small, poorly fitted or top-dose-only effect, or another doubt; inactive means no such curve, though single readings can be large; an effect the other way counts as inactive or inconclusive.
# Abbreviations: A = ALDH1A1 block; B = LMNA splice mod; C = miR-21 reporter; D = G9a inh; E = JMJD2E inh; F = Sfp PPTase inh
(1) O=C(/C=C/c1cccnc1)c1ccc([N+](=O)[O-])cc1
  A: . | B: . | C: ? | D: 13µM* | E: . | F: ?
(2) O=C(/C=C/c1cccnc1)c1ccc(O)cc1
  A: . | B: . | C: ? | D: -2% | E: 19% | F: 18%
(3) O=c1n(Cc2ccc(F)cc2)c2ccccc2c2nc(-c3ccccc3)nn12
  A: . | B: . | C: -10% | D: 2%[59 µM] | E: . | F: .
(4) O=S1(=O)C[C@@H](O)[C@@H](Nc2ccc(Cl)cc2)C1
  A: 11µM* | B: 10% | C: 1% | D: -41%[2.33 µM] | E: -3% | F: 10%
(5) OCCN1CCN(Cc2cc(Cl)c3cccnc3c2O)CC1
  A: ? | B: ? | C: 26% | D: 50µM* | E: 22µM* | F: 10%
(6) Oc1c(Cl)cc(CN2CCCCC2)c2cccnc12
  A: . | B: . | C: ? | D: -10%[2.33 µM] | E: . | F: 13%
(7) Oc1c(CN2CCCCC2)cc(COCc2ccccc2)c2cccnc12
  A: -42% | B: ? | C: ? | D: ? | E: -3% | F: -16%
(8) O=C(Oc1c(CN2CCOCC2)cc(Cl)c2cccnc12)c1ccccc1Cl
  A: 7% | B: ? | C: ? | D: 3% | E: ? | F: 0%
(9) COCc1cc(CN2CCCC2)c(O)c2ncccc12
  A: -16% | B: -7% | C: 26% | D: ? | E: 3.5µM* | F: 15%
(10) O=[N+]([O-])c1cc(CN2CCCC2)c2cccnc2c1O
  A: -6% | B: -4% | C: -1% | D: ? | E: 20µM* | F: -2%
(11) O=C(Oc1c(CN2CCOCC2)cc(Cl)c2cccnc12)c1cccs1
  A: ? | B: ? | C: ? | D: 26% | E: 25µM* | F: -3%
(12) O=C(Cn1cnc2ccccc2c1=O)NCCC(=O)Nc1ccc(F)cc1
  A: . | B: . | C: 8% | D: -11% | E: . | F: 11%
(13) COCC(=O)NC1CCN(CC(=O)Nc2ccc(OC)cc2[N+](=O)[O-])CC1
  A: 13µM* | B: 6%[0.0737 µM] | C: 1% | D: 6%[0.501 µM] | E: 0% | F: -4%
(14) O=C(CN1CCC(NC(=O)c2ccco2)CC1)Nc1ccccc1[N+](=O)[O-]
  A: 22µM* | B: ? | C: -15% | D: . | E: 2% | F: 4%
(15) O=C(CN1CCC(NC(=O)c2ccco2)CC1)Nc1cccc2ccccc12
  A: 12% | B: -7% | C: -8% | D: 13%[59 µM] | E: 8% | F: 23%
(16) COCC(=O)NC1CCN(CC(=O)Nc2ccccc2[N+](=O)[O-])CC1
  A: -13% | B: . | C: -9% | D: 26% | E: -2% | F: 16%
(17) CC(=O)c1cc(C)oc1C
  A: -24% | B: . | C: . | D: . | E: . | F: .
(18) COC(=O)c1ccc(/C=C/c2c(-c3ccsc3)sc3ccccc23)cc1
  A: . | B: . | C: 2% | D: . | E: . | F: -17%
(19) CCCCCC(=O)Nc1ccc(-c2csc(N)n2)cc1
  A: ? | B: . | C: -34% | D: 40µM* | E: -8% | F: ?
(20) CC(=O)Nc1ccc(-c2csc(NNC(=O)c3ccccc3)n2)cc1
  A: -4% | B: . | C: -7% | D: -2% | E: 5% | F: 18µM*
(21) O=C(Nc1ccc(-c2csc(-c3ccccc3)n2)cc1)c1ccccc1
  A: 7% | B: 9%[0.0737 µM] | C: 1% | D: 27%[0.501 µM] | E: 332% | F: 6%
(22) CCC(=O)Nc1ccc(-c2csc(NNC(C)=O)n2)cc1
  A: 3% | B: -10% | C: -6% | D: 14µM* | E: 4% | F: -18%
(23) C/C(=N/Nc1nc(-c2ccc(Cl)cc2)cs1)c1cccs1
  A: 16µM* | B: -10% | C: -20% | D: ? | E: -1% | F: 40µM*
(24) O=C(c1ccco1)N1CCC2(CC1)CCN(c1ccccn1)CC2
  A: ? | B: . | C: . | D: 4%[12.7 µM] | E: . | F: 6%
(25) COc1cc(/C=C/C(=O)O)cc(S(=O)(=O)Nc2ccc(S(=O)(=O)N3CCCCC3)cc2)c1OC
  A: . | B: . | C: . | D: -6%[0.501 µM] | E: . | F: .

# Sorted by SMILES length (lowest first): some entries from above
# Abbreviations: A = ALDH1A1 block; B = LMNA splice mod; C = miR-21 reporter; D = G9a inh; E = JMJD2E inh; F = Sfp PPTase inh
(21) O=C(Nc1ccc(-c2csc(-c3ccccc3)n2)cc1)c1ccccc1
  A: 7% | B: 9%[0.0737 µM] | C: 1% | D: 27%[0.501 µM] | E: 332% | F: 6%
(3) O=c1n(Cc2ccc(F)cc2)c2ccccc2c2nc(-c3ccccc3)nn12
  A: . | B: . | C: -10% | D: 2%[59 µM] | E: . | F: .
(25) COc1cc(/C=C/C(=O)O)cc(S(=O)(=O)Nc2ccc(S(=O)(=O)N3CCCCC3)cc2)c1OC
  A: . | B: . | C: . | D: -6%[0.501 µM] | E: . | F: .

# (next part)
# Abbreviations: A = ALDH1A1 block; B = LMNA splice mod; C = miR-21 reporter; D = G9a inh; E = JMJD2E inh; F = Sfp PPTase inh
(26) CN(C(=O)c1ccc(Br)o1)C1CCCCC1
  A: . | B: . | C: -30% | D: 9% | E: . | F: 27%
(27) CN(CCC#N)S(=O)(=O)c1cc2c3c(c1)CCN3C(=O)CC2
  A: . | B: . | C: -1% | D: 0% | E: . | F: 8%
(28) COc1ccc(NC(=O)CCc2nc3c(C)nn(-c4ccc(C)cc4)c3n(C)c2=O)cc1
  A: . | B: 17%[46 µM] | C: -9% | D: -28%[59 µM] | E: . | F: .
(29) COc1cccc(CN(C)C(=O)CSc2nc3ccccc3[nH]2)c1OC
  A: . | B: . | C: -15% | D: -33%[59 µM] | E: . | F: -1%
(30) CCOC(=O)/C(C)=N/Nc1nc(-c2ccc(NC(C)=O)cc2)cs1
  A: . | B: . | C: 15% | D: . | E: -17% | F: 28µM*
(31) CC(=O)Nc1ccc(-c2cc(-c3ccccc3)nc(-c3ccccc3)n2)cc1
  A: ? | B: -13% | C: -5% | D: ? | E: 1% | F: 1%
(32) CC(=O)Nc1ccc(-c2csc(N/N=C(/C)c3ccccc3)n2)cc1
  A: . | B: . | C: -11% | D: 18µM* | E: ? | F: 40µM*
(33) CCCc1cc(=O)[nH]c(Nc2cc(Cl)cc(Cl)c2)n1
  A: . | B: . | C: ? | D: -8%[59 µM] | E: . | F: .
(34) CCOc1ccc(OCC)c(Nc2ccc3cc(S(=O)(=O)N4CCCC4)ccc3n2)c1
  A: . | B: . | C: 6% | D: 8%[59 µM] | E: . | F: .
(35) COc1ccc(C[C@@](C)(N)C(=O)O)cc1OC
  A: -13%[20.9 µM] | B: 5% | C: . | D: 39%[21.5 µM] | E: 11µM* | F: -22%
(36) CC(N)(Cc1ccc(O)c(O)c1)C(=O)O (stereo not drawn)
  A: 2.2µM* | B: -18% | C: . | D: 0.95µM* | E: 3.5µM* | F: .
(37) C[C@@](N)(Cc1ccc(O)cc1)C(=O)O
  A: -5% | B: -3% | C: . | D: . | E: 5% | F: -2%
(38) O=C1C2CCCN2C(=O)N1CCCCN1CCN(c2ccccc2)CC1 (stereo not drawn)
  A: 3% | B: 14% | C: -5% | D: -6%[59 µM] | E: -13% | F: -24%
(39) O=C1CC(=C(c2ccccc2)c2ccccc2)C(=O)N1CCCCN1CCN(c2ccccc2)CC1
  A: ? | B: ? | C: 25% | D: 14µM* | E: -7% | F: ?
(40) O=C(CCN1CCN(c2ccc([N+](=O)[O-])cc2)CC1)c1ccc(Cl)cc1
  A: . | B: . | C: 1% | D: 14µM* | E: . | F: ?
(41) O=C(CCN1CCN(c2ccccc2)CC1)c1ccc(Cl)cc1
  A: . | B: . | C: -6% | D: 28µM* | E: . | F: 2%
(42) O=C(c1cccc2ccccc12)N1CCN(CC2CC=CCC2)CC1 (stereo not drawn)
  A: ? | B: -18% | C: 0% | D: ? | E: ? | F: ?
(43) O=C(C1CCN(CC2CC=CCC2)CC1)N(CCc1ccccc1)Cc1ccccc1 (stereo not drawn)
  A: -4% | B: ? | C: 9% | D: 45µM* | E: -1% | F: -28%
(44) O=C(C1CCCN(S(=O)(=O)c2cnc[nH]2)C1)N(CCc1ccccc1)Cc1ccccc1 (stereo not drawn)
  A: 11µM* | B: 4% | C: -12% | D: 0% | E: -3% | F: -2%
(45) O=C(C1CCN(S(=O)(=O)c2cnc[nH]2)CC1)N(CCc1ccccc1)Cc1ccccc1
  A: -3% | B: -20%[46 µM] | C: -7% | D: -32% | E: 2% | F: 1%
(46) CN(Cc1ccon1)C(=O)C1CCN(C2CCN(CCCc3ccccc3)CC2)CC1
  A: . | B: . | C: 3% | D: -20% | E: . | F: 15%
(47) O=C(C1CCN(CCCc2ccccc2)CC1)N(CCc1ccccc1)Cc1ccccc1
  A: -7% | B: ? | C: 19% | D: 14µM* | E: ? | F: ?
(48) CCC(C)NC(=O)C1CCN(CCCc2ccccc2)CC1 (stereo not drawn)
  A: . | B: . | C: 0% | D: 14µM* | E: . | F: 11%
(49) CCC1(CC)C(=O)C2=C3C1[C@H](C(=O)OC)CC(C(=O)OC)C[C@H]3[C@H]1C(=O)N(C)C(=O)[C@H]1[C@H]2C (stereo partly drawn)
  A: . | B: . | C: . | D: . | E: . | F: 7%
(50) Cc1c([N+](=O)[O-])nnn1-c1cc(Cl)cc(Cl)c1
  A: 3% | B: 3%[46 µM] | C: -4% | D: -5% | E: 1% | F: 6%
(51) O=S1(=O)c2ccccc2N(Cc2cccc(F)c2)c2ccccc21
  A: . | B: 19%[46 µM] | C: -18% | D: 10%[59 µM] | E: . | F: .
